Here are results for 32 molecules from ChEMBL document CHEMBL2440015, “Reversible inhibition of human acetylcholinesterase by methoxypyridinium species” (2013).

Amino acid sequences for entries named in this document (tags omitted). Residues count along the entry.
UniProt P22303, 32-614 limits assumed: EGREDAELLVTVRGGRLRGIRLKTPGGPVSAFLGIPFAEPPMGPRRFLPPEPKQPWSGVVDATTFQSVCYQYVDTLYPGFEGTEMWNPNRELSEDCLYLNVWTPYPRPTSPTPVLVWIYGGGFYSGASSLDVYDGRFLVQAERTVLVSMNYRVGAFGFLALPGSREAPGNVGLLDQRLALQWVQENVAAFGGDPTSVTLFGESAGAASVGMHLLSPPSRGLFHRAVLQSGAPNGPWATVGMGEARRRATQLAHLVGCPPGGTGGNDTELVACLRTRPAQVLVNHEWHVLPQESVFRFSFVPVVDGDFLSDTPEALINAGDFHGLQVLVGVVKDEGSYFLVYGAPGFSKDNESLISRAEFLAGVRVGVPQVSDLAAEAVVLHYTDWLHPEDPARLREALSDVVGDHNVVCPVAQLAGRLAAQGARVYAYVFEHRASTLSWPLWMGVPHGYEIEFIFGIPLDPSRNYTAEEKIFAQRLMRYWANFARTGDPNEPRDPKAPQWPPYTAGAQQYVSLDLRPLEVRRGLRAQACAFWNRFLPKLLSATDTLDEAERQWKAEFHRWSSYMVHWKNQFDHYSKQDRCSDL

Experiment [1] addresses T1, Acetylcholinesterase (Homo sapiens, UniProt P22303). Description: Reversible inhibition of human recombinant AChE using acetylthiocholine iodide as substrate measured at initial time point by Ellmans method.
Experiment [2] has as its target T1, Acetylcholinesterase. The experiment in a line: Reversible inhibition of human recombinant AChE using acetylthiocholine iodide as substrate measured after 2 hrs by Ellmans method.

Each structure is given as a SMILES string.

As a reminder, the IC50 is the concentration needed to halve the response being measured. With `COc1ccc(C(F)(F)F)c[n+]1CCCCOc1ccc2c(C)cc(=O)oc2c1`, the results for the 50% inhibitory concentration (IC50) in experiment [1] and in experiment [2] were 760 nM and 1110 nM, respectively.

Take `COc1cccc(CCCCCCCc2cccc(OC)[n+]2C)[n+]1C`: the half-maximal inhibitory concentration (IC50) in experiment [1] and in experiment [2] was 120 nM in each case.

As to `COc1cc2c(cc1OC)C[N+](C)(CCCCCCCc1cccc(OC)[n+]1C)CC2` (configuration not stated), the 50% inhibitory concentration (IC50) in experiment [1] worked out at 49 nM; in experiment [2], 110 nM.

As to `COc1cc(C#N)cc[n+]1C`, the half-maximal inhibitory concentration (IC50) in experiment [1] is 51000 nM; in experiment [2] it was 61000 nM.

Regarding `COc1cccc(C(F)(F)F)[n+]1C`, the IC50 in experiment [1] turned out to be 36000 nM; in experiment [2], 46000 nM.

For the molecule `COc1c(F)c[n+](CCC[n+]2cc(F)c(OC)c(F)c2)cc1F`, the values for the IC50 in experiment [1] and in experiment [2] were 21000 nM and 28000 nM, respectively.

Consider `COc1cccc[n+]1C`, for which the IC50 in experiment [1] amounted to 37000 nM; in experiment [2] it was 46000 nM.

Regarding `COc1ccc(C#N)c[n+]1C`, the IC50 was 43000 nM in experiment [1] and 64000 nM in experiment [2].

In the case of `COc1ccc(C(F)(F)F)c[n+]1CCCCCOc1ccc2c(C)cc(=O)oc2c1`, the IC50 stood at 720 nM in experiment [1] and 1030 nM in experiment [2].

As for `COc1cc2c(cc1OC)C[N+](C)(CCCCc1cccc(OC)[n+]1C)CC2` (configuration not stated), the figures for the half-inhibitory concentration (IC50) in experiment [1] and in experiment [2] were 5200 nM and 5500 nM, respectively.

Regarding `COc1cc2c(cc1OC)C[N+](C)(CCCCCCc1cccc(OC)[n+]1C)CC2` (configuration not stated), the IC50 in experiment [1] was 150 nM; in experiment [2] it was 190 nM.

As for `COc1cccc(CCCCCCc2cccc(OC)[n+]2C)[n+]1C`, the concentration for half-maximal inhibition (IC50) in experiment [1] and in experiment [2] was 70 nM throughout.

For the molecule `COc1cc2c(cc1OC)C(=O)C(CCCCCc1cccc(OC)[n+]1C)C2` (configuration not stated), the concentration for half-maximal inhibition (IC50) was determined as 120 nM in experiment [1] and 130 nM in experiment [2].

With `COc1c(F)c[n+](C)cc1F`, the figures for the half-maximal inhibitory concentration (IC50) in experiment [1] and in experiment [2] were 54000 nM and 98000 nM, respectively.

Regarding `COc1ccc(F)c[n+]1C`, the IC50 was 16000 nM in experiment [1] and 17000 nM in experiment [2].

`COc1cc2c(cc1OC)C(=O)C(CCCCCCc1cccc(OC)[n+]1C)C2` (configuration not stated): the IC50 was determined as 70 nM in experiment [1] and 100 nM in experiment [2].

Turning to `COc1ccc([N+](=O)[O-])c[n+]1C`, the figures for the IC50 in experiment [1] and in experiment [2] were 7500 nM and 35000 nM, respectively.

Regarding `COc1ccc(C(F)(F)F)c[n+]1CCCOc1ccc2c(C)cc(=O)oc2c1`, the concentration for half-maximal inhibition (IC50) in experiment [1] and in experiment [2] was 3600 nM throughout.

`COc1cccc(CCCCCc2cccc(OC)[n+]2C)[n+]1C`: the half-inhibitory concentration (IC50) in experiment [1] is 100 nM; in experiment [2] it was 110 nM.

As to `COc1ccc(C(F)(F)F)c[n+]1C`, the values for the half-maximal inhibitory concentration (IC50) in experiment [1] and in experiment [2] were 23000 nM and 31000 nM, respectively.

Turning to `COc1ccc(C(F)(F)F)c[n+]1CCCCC[n+]1cc(C(F)(F)F)ccc1OC`, the IC50 in experiment [1] and in experiment [2] was 22000 nM each time.

Take `COc1c(F)c[n+](CCCCCOc2ccc3c(C)cc(=O)oc3c2)cc1F`: the IC50 amounted to 480 nM in experiment [1] and 470 nM in experiment [2].

As for `COc1cccc(CCCCCCCCc2cccc(OC)[n+]2C)[n+]1C`, the IC50 in experiment [1] amounted to 180 nM; in experiment [2] it was 190 nM.

For the molecule `COc1cc2c(cc1OC)C[N+](C)(CCCCCc1cccc(OC)[n+]1C)CC2` (configuration not stated), the IC50 in experiment [1] came out at 500 nM; in experiment [2], 460 nM.

With `COc1cccc(C#N)[n+]1C`, the results for the half-inhibitory concentration (IC50) in experiment [1] and in experiment [2] were 14000 nM and 18000 nM, respectively.

Regarding `COc1ccc(C(F)(F)F)c[n+]1CCCCCO`, the IC50 in experiment [1] came to 98000 nM.

Take `COc1c(F)c[n+](CCCCOc2ccc3c(C)cc(=O)oc3c2)cc1F`: the IC50 stood at 690 nM in experiment [1] and 530 nM in experiment [2].

On to `COc1c(F)ccc[n+]1C`, for which the IC50 in experiment [1] was determined as 70000 nM.

Turning to `COc1cccc(CCc2cccc(OC)[n+]2C)[n+]1C`, the IC50 turned out to be 810 nM in experiment [1] and 1100 nM in experiment [2].

For `COc1cc2c(cc1OC)C(=O)C(CCCCCCCc1cccc(OC)[n+]1C)C2` (configuration not stated), the 50% inhibitory concentration (IC50) is 190 nM in experiment [1] and 270 nM in experiment [2].

On to `COc1c(F)c[n+](CCCOc2ccc3c(C)cc(=O)oc3c2)cc1F`, for which the figures for the IC50 in experiment [1] and in experiment [2] were 1700 nM and 1900 nM, respectively.

Turning to `COc1ccc(C(F)(F)F)c[n+]1CCC[n+]1cc(C(F)(F)F)ccc1OC`, the results for the half-maximal inhibitory concentration (IC50) in experiment [1] and in experiment [2] were 10500 nM and 3600 nM, respectively.
